Measured values as given in ChEMBL document CHEMBL5352423, “Discovery of potent human dihydroorotate dehydrogenase inhibitors based on a benzophenone scaffold” (Eur J Med Chem, 2022).

Sequences of proteins named here, by UniProt entry; tags and fusion partners are left off. A change or cut given only in a name is not applied to a line headed by its entry.
UniProt Q02127: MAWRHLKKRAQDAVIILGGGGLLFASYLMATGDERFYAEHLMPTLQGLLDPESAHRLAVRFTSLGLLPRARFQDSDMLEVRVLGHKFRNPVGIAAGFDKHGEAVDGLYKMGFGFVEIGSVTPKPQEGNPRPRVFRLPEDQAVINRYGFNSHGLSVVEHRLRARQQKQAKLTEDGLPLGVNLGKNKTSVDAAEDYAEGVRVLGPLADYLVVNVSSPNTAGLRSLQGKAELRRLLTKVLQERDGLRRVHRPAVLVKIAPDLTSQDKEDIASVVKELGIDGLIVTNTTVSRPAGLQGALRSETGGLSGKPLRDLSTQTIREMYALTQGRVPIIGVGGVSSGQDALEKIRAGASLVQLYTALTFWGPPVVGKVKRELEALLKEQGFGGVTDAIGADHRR

Biological target: Dihydroorotate dehydrogenase (quinone), mitochondrial (Homo sapiens, UniProt Q02127)
Assay: Potency index, ratio of teriflunomide IC50 to test compound IC50 for human DHODH

In the case of `C/C(O)=C(\C#N)C(=O)Nc1cc(O[C@@H](C)C(F)(F)F)c(C(=O)c2ccccc2Cl)cc1F`, the Ratio IC50 is reported as 37.
